# Assay results published in patent publication US20260022143A1, “Cyclic Peptide Inhibitors of IL-23” (JANSSEN PHARMACEUTICA NV, priority 2022, published 2026).
# Molecular target: T1, IL-23R (Homo sapiens, UniProt Q5VWK5)
# T1 construct: host or cells: HEK293
# T1 sequence (Q5VWK5 24-629): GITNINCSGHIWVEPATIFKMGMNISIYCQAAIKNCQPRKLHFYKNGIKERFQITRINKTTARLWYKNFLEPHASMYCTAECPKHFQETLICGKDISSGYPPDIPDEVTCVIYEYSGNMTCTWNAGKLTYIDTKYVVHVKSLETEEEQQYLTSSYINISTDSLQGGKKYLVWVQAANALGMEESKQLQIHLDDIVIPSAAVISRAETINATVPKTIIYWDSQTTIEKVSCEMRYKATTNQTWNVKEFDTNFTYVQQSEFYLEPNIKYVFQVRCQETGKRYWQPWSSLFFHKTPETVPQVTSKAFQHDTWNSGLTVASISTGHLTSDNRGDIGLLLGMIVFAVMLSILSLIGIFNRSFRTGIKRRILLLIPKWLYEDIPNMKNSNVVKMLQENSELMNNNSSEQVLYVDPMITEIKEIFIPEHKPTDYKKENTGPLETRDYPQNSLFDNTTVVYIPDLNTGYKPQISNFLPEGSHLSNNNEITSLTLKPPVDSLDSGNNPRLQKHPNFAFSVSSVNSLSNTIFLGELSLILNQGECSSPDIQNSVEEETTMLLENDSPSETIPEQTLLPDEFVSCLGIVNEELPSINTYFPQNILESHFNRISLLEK
# Assay: IL23R Reporter Assay
# Format: cell-based
# Details: HEK293 cells containing IL-23R, IL-12RP1 and STAT-inducible firefly luciferase reporter; 10 ng/mL IL-23 (EC90); 5 h at 37° C.; read-out: IL23R Reporter Assay
row,Compound,pIC50
1,"CC(=O)N(C)CCCC[C@@H]1NC(=O)[C@H](Cc2c[nH]c3c(C)cccc23)NC(=O)[C@H]([C@@H](C)O)NC(=O)[C@H](CC(=O)N(C)C)NC(=O)[C@@H](NC(=O)CCOCCOCC[N+](C)(C)C)C(C)(C)SSC(C)(C)[C@@H](C(=O)N[C@@H](Cc2ccc(OCCCCC[N+](C)(C)C)cc2)C(=O)N[C@@H](Cc2ccc3ccccc3c2)C(=O)NC2(C(=O)N[C@@H](CCC(=O)N(C)C)C(=O)N[C@@H](CC(N)=O)C(=O)N[C@@H](Cc3cccnc3)C(=O)N(C)CC(=O)N(C)C)CCOCC2)NC1=O [compound 310, cPEG3aCO-Pen(3)-N(N(Me)2)-T-7MeW-K(NMeAC)-Pen(3)-TMAPF-2Nal-THP-Q(N(Me)2)-N-3Pya-Sar-CON(Me)2]",8.66
2,"CC(=O)NCCCC[C@@H]1NC(=O)[C@H](Cc2c[nH]c3c(C)cccc23)NC(=O)[C@H]([C@@H](C)O)NC(=O)[C@H](CC(N)=O)NC(=O)[C@@H](NC(=O)CCOCCOCC[N+](C)(C)C)C(C)(C)SSC(C)(C)[C@@H](C(=O)N[C@@H](Cc2ccc(OCCCCC[N+](C)(C)C)cc2)C(=O)N[C@@H](Cc2ccc3ccccc3c2)C(=O)NC2(C(=O)N[C@@H](C)C(=O)N[C@@H](CC(N)=O)C(=O)N[C@@H](Cc3cccnc3)C(=O)N(C)CC(=O)N(C)C)CCOCC2)NC1=O [compound 317, cPEG3aCO-Pen(3)-N-T-7MeW-K(Ac)-Pen(3)-TMAPF-2Nal-THP-A-N-3Pya-Sar-CON(Me)2]",8.89
3,"CC(=O)N(C)CCCC[C@@H]1NC(=O)[C@H](Cc2c[nH]c3c(C)cccc23)NC(=O)[C@H]([C@@H](C)O)NC(=O)[C@H](CC(=O)N(C)C)NC(=O)[C@@H](NC(=O)CCOCCOCC[N+](C)(C)C)C(C)(C)SSC(C)(C)[C@@H](C(=O)N[C@@H](Cc2ccc(OCCN(C)C)cc2)C(=O)N[C@@H](Cc2ccc3ccccc3c2)C(=O)NC2(C(=O)N[C@@H](CCCCN(C)C(C)=O)C(=O)N[C@@H](CC(N)=O)C(=O)N[C@@H](Cc3cccnc3)C(=O)N(C)CC(=O)N(C)C)CCOCC2)NC1=O [compound 321, cPEG3aCO-Pen(3)-N(N(Me)2)-T-7MeW-K(NMeAc)-Pen(3)-AEF(N(Me)2)-2Nal-THP-K(NMeAc)-N-3Pya-Sar-CON(Me)2]",8.89
4,"CC(=O)N(C)CCCC[C@H](NC(=O)C1(NC(=O)[C@H](Cc2ccc3ccccc3c2)NC(=O)[C@H](Cc2ccc(OCCCCC[N+](C)(C)C)cc2)NC(=O)[C@H]2NC(=O)[C@H](CCCC[N+](C)(C)C)NC(=O)[C@H](Cc3c[nH]c4c(C)cccc34)NC(=O)[C@H]([C@@H](C)O)NC(=O)[C@H](CC(=O)N(C)C)NC(=O)[C@@H](NC(=O)CCOCCOCC[N+](C)(C)C)C(C)(C)SSC2(C)C)CCOCC1)C(=O)N[C@@H](CC(N)=O)C(=O)N[C@@H](Cc1cccnc1)C(=O)N(C)CC(=O)N(C)C [compound 329, cPEG3aCO-Pen(3)-N(N(Me)2)-T-7MeW-K(Me)3-Pen(3)-TMAPF-2Nal-THP-K(NMeAc)-N-3Pya-Sar-CON(Me)2]",8.72
5,"CC(=O)N(C)CCCC[C@@H]1NC(=O)[C@H](Cc2c[nH]c3c(C)cccc23)NC(=O)[C@H]([C@@H](C)O)NC(=O)[C@H](CC(=O)N(C)C)NC(=O)[C@@H](NC(=O)CCOCCOCC[N+](C)(C)C)C(C)(C)SSC(C)(C)[C@@H](C(=O)N[C@@H](Cc2ccc(-n3cc(CCC[N+](C)(C)C)nn3)cc2)C(=O)N[C@@H](Cc2ccc3ccccc3c2)C(=O)NC2(C(=O)N[C@@H](CCCCN(C)C(C)=O)C(=O)N[C@@H](CC(N)=O)C(=O)N[C@@H](Cc3cccnc3)C(=O)N(C)CC(=O)N(C)C)CCOCC2)NC1=O [compound 334, cPEG3aCO-Pen(3)-N(N(Me)2)-T-7MeW-K(NMeAc)-Pen(3)-F(4TzlTMA3)-2Nal-THP-K(NMeAc)-N-3Pya-Sar-CON(Me)2]",8.96
6,"COCC[N+](C)(C)CCCCc1cn(-c2ccc(C[C@H](NC(=O)[C@H]3NC(=O)[C@H](CCCCN(C)C(C)=O)NC(=O)[C@H](Cc4c[nH]c5c(C)cccc45)NC(=O)[C@H]([C@@H](C)O)NC(=O)[C@H](CC(=O)N(C)C)NC(=O)[C@@H](NC(=O)CCOCCOCC[N+](C)(C)C)C(C)(C)SSC3(C)C)C(=O)N[C@@H](Cc3ccc4ccccc4c3)C(=O)NC3(C(=O)N[C@@H](CCCCN(C)C(C)=O)C(=O)N[C@@H](CC(N)=O)C(=O)N[C@@H](Cc4cccnc4)C(=O)N(C)CC(=O)N(C)C)CCOCC3)cc2)nn1 [compound 337, cPEG3aCO-Pen(3)-N(N(Me)2)-T-7MeW-K(NMeAc)-Pen(3)-F(4TzlDMA4mPEG)-2Nal-THP-K(NMeAc)-N-3Pya-Sar-CON(Me)2]",8.72
7,"CC(=O)N(C)CCCC[C@@H]1NC(=O)[C@H](Cc2c[nH]c3c(C)cccc23)NC(=O)[C@H]([C@@H](C)O)NC(=O)[C@H](CC(=O)N(C)C)NC(=O)[C@@H](NC(=O)CCOCCOCC[N+](C)(C)C)C(C)(C)SSC(C)(C)[C@@H](C(=O)N[C@@H](Cc2ccc(OCCOCCOCCNC(=N)N)cc2)C(=O)N[C@@H](Cc2ccc3ccccc3c2)C(=O)NC2(C(=O)N[C@@H](CCCCN(C)C(C)=O)C(=O)N[C@@H](CC(N)=O)C(=O)N[C@@H](Cc3cccnc3)C(=O)N(C)CC(=O)N(C)C)CCOCC2)NC1=O [compound 405, cPEG3aCO-Pen(3)-N(N(Me)2)-T-7MeW-K(NMeAc)-Pen(3)-GPEG3F-2Nal-THP-K(NMeAc)-N-3Pya-Sar-CON(Me)2]",8.72

# More lines, in order of rising pIC50, values ahead:
row,pIC50,Compound
1,8.55,"CC(=O)N(C)CCCC[C@@H]1NC(=O)[C@H](Cc2c[nH]c3c(C)cccc23)NC(=O)[C@H]([C@@H](C)O)NC(=O)[C@H](CC(=O)N(C)C)NC(=O)[C@@H](NC(=O)CCOCCOCC[N+](C)(C)C)C(C)(C)SSC(C)(C)[C@@H](C(=O)N[C@@H](Cc2ccc(OCCCCC[N+](C)(C)C)cc2)C(=O)N[C@@H](Cc2ccc3ccccc3c2)C(=O)N[C@H](C(=O)N[C@@H](CCCCN(C)C(C)=O)C(=O)N[C@@H](CC(N)=O)C(=O)N[C@@H](Cc2cccnc2)C(=O)N(C)CC(=O)N(C)C)C2CCCCC2)NC1=O [compound 340, cPEG3aCO-Pen(3)-N(N(Me)2)-T-7MeW-K(NMeAc)-Pen(3)-TMAPF-2Nal-Chg-K(NMeAc)-N-3Pya-Sar-CON(Me)2]"
2,8.60,"CC(=O)N[C@H](CCCNC(=N)N)C(=O)N[C@@H]1C(=O)N[C@@H](CC(=O)N(C)C)C(=O)N[C@@H]([C@@H](C)O)C(=O)N[C@@H](Cc2c[nH]c3c(C)cccc23)C(=O)N[C@@H](CCCCN(C)C(C)=O)C(=O)N[C@H](C(=O)N[C@@H](Cc2ccc(OCCCCC[N+](C)(C)C)cc2)C(=O)N[C@@H](Cc2ccc3ccccc3c2)C(=O)NC2(C(=O)N[C@@H](CCCCN(C)C(C)=O)C(=O)N[C@@H](CC(N)=O)C(=O)N[C@@H](Cc3cccnc3)C(=O)N(C)CC(=O)N(C)C)CCOCC2)C(C)(C)SSC1(C)C [compound 345, MeCO-r-Pen(3)-N(N(Me)2)-T-7MeW-K(NMeAc)-Pen(3)-TMAPF-2Nal-THP-K(NMeAc)-N-3Pya-Sar-CON(Me)2]"
3,8.72,"CC(=O)N(C)CCCC[C@@H]1NC(=O)[C@H](Cc2c[nH]c3c(C)cccc23)NC(=O)[C@H]([C@@H](C)O)NC(=O)[C@H](CCCCNC(=O)CCOCCOCC[N+](C)(C)C)NC(=O)[C@@H](NC(=O)CCOCCOCC[N+](C)(C)C)C(C)(C)SSC(C)(C)[C@@H](C(=O)N[C@@H](Cc2ccc(OCCCCC[N+](C)(C)C)cc2)C(=O)N[C@@H](Cc2ccc3ccccc3c2)C(=O)NC2(C(=O)N[C@@H](CCCCN(C)C(C)=O)C(=O)N[C@@H](CC(N)=O)C(=O)N[C@@H](Cc3cccnc3)C(=O)N(C)CC(=O)N(C)C)CCOCC2)NC1=O [compound 393, cPEG3aCO-Pen(3)-K(cPEG3a)-T-7MeW-K(NMeAc)-Pen(3)-TMAPF-2Nal-THP-K(NMeAc)-N-3Pya-Sar-CON(Me)2]"
4,8.89,"CC(=O)N(C)CCCC[C@@H]1NC(=O)[C@H](Cc2c[nH]c3c(C)cccc23)NC(=O)[C@H]([C@@H](C)O)NC(=O)[C@H](CC(=O)N(C)C)NC(=O)[C@@H](NC(=O)CCOCCOCC[N+](C)(C)C)C(C)(C)SSC(C)(C)[C@@H](C(=O)N[C@@H](Cc2ccc(OCCCCC[N+](C)(C)C)cc2)C(=O)N[C@@H](Cc2ccc3ccccc3c2)C(=O)NC2(C(=O)N[C@@H](C)C(=O)N[C@@H](CC(N)=O)C(=O)N[C@@H](Cc3cccnc3)C(=O)N(C)CC(=O)N(C)C)CCOCC2)NC1=O [compound 316, cPEG3aCO-Pen(3)-N(N(Me)2)-T-7MeW-K(NMeAc)-Pen(3)-TMAPF-2Nal-THP-A-N-3Pya-Sar-CON(Me)2]"
5,8.89,"CC(=O)N(C)CCCC[C@@H]1NC(=O)[C@H](Cc2c[nH]c3c(C)cccc23)NC(=O)[C@H]([C@@H](C)O)NC(=O)[C@H](CC(=O)N(C)C)NC(=O)[C@@H](NC(=O)CCOCCOCC[N+](C)(C)C)C(C)(C)SSC(C)(C)[C@@H](C(=O)N[C@@H](Cc2ccc(OCCOCCOCC[N+](C)(C)C)cc2)C(=O)N[C@@H](Cc2ccc3ccccc3c2)C(=O)NC2(C(=O)N[C@@H](CCCCN(C)C(C)=O)C(=O)N[C@@H](CC(N)=O)C(=O)N[C@@H](Cc3cccnc3)C(=O)N(C)CC(N)=O)CCOCC2)NC1=O [compound 363, cPEG3aCO-Pen(3)-N(N(Me)2)-T-7MeW-K(NMeAc)-Pen(3)-APEG3F-2Nal-THP-K(NMeAc)-N-3Pya-Sar-CONH2]"
6,8.96,"CC(=O)N(C)CCCC[C@H](NC(=O)C1(NC(=O)[C@H](Cc2ccc3ccccc3c2)NC(=O)[C@H](Cc2ccc(OCCCCC[N+](C)(C)C)cc2)NC(=O)[C@H]2NC(=O)[C@H](CCC(=O)N(C)C)NC(=O)[C@H](Cc3c[nH]c4c(C)cccc34)NC(=O)[C@H]([C@@H](C)O)NC(=O)[C@H](CC(=O)N(C)C)NC(=O)[C@@H](NC(=O)CCOCCOCC[N+](C)(C)C)C(C)(C)SSC2(C)C)CCOCC1)C(=O)N[C@@H](CC(N)=O)C(=O)N[C@@H](Cc1cccnc1)C(=O)N(C)CC(=O)N(C)C [compound 312, cPEG3aCO-Pen(3)-N(N(Me)2)-T-7MeW-Q(N(Me)2)-Pen(3)-TMAPF-2Nal-THP-K(NMeAC)-N-3Pya-Sar-CON(Me)2]"

# pIC50: −log10 of the molar value.
